From patent US4049898A (priority 1975, dated 1977) come the findings set out here.

As to “Amphotericin B-Calcium-Oxalic Acid Complex [Example 1]”, the “solubility in water at pH 2” value amounted to 3.44 g/l.
